Measured values taken from ChEMBL document CHEMBL4414672, “Synthesis of certain benzothieno[3,2-d]pyrimidine derivatives as a selective SIRT2 inhibitors” (Eur J Med Chem, 2020).

Target: T1, NAD-dependent protein deacetylase sirtuin-2 (Homo sapiens) (UniProt Q8IXJ6)
T1 sequence (whole entry): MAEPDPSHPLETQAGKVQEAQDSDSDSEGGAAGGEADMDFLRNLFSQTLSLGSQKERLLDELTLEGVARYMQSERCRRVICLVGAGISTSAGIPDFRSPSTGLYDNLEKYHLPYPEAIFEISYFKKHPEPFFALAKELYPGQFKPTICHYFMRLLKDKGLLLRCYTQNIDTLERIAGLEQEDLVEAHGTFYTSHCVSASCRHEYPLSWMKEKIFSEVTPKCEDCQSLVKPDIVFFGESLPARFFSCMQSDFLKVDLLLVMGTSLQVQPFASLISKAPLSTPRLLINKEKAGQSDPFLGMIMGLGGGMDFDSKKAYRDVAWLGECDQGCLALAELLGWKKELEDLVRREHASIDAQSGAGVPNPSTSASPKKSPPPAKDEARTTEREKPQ
Experiment: Potency index, ratio of cambinol compound IC50 to test compound IC50 for inhibition of SIRT2 (unknown origin)

SMILES | Ratio IC50
O=[N+]([O-])c1cccc(C2c3sc4ccc(Cl)cc4c3N=C3NN=CN32)c1 (stereo not drawn) | 5.4
O=[N+]([O-])c1cccc(C2c3sc4ccc(Cl)cc4c3N=C3NN=C(c4cccc(F)c4)N32)c1 (stereo not drawn) | 3.4
O=C1CSC2=Nc3c(sc4ccc(Cl)cc34)C(c3ccc4ccccc4c3)N12 (stereo not drawn) | 6.6
